Assay results from patent publication US9403831B2, “Triazolopyrazine derivative and use thereof” (KOREA RESEARCH INSTITUTE OF CHEMICAL TECHNOLOGY, priority 2013, dated 2016).

Each compound was assayed on gastric cancer cell line Hs746T (assay: Cancer cell proliferation inhibitory test (SRB or MTS assay, 72 hours)). Conditions: read-out: Hs746T IC50; cancer cell (Hs746T) proliferation inhibition, culturing with compound for 72 hours.
Type: cell-based, human

In order of falling pIC50:
1. Cn1cc(-c2cnc(N3CCO[C@H](Cn4nnc5ncc(-c6ccc(F)c(C#N)c6)nc54)C3)nc2)cn1  10.00
2. N#Cc1cccc(-c2cnc3nnn(C[C@@H]4CN(c5ncc(-c6cnn(C7CCNCC7)c6)cn5)CCO4)c3n2)c1  9.15
3. Cn1cc(-c2cnc(N3CCO[C@H](Cn4nnc5ncc(-c6cccc(C#N)c6)nc54)C3)nc2)cn1  9.15
4. N#Cc1cccc(-c2cnc3nnn(C[C@@H]4CN(c5ncc(C6CCN(CCO)CC6)cn5)CCO4)c3n2)c1  9.05
5. CN1CC=C(c2cnc(N3CCO[C@H](Cn4nnc5ncc(-c6cccc(C#N)c6)nc54)C3)nc2)CC1 [Chemical formula 25]  8.96
6. CN1CCN(CCOc2cnc(N3CCO[C@H](Cn4nnc5ncc(-c6cnn(C)c6)nc54)C3)nc2)CC1  8.92
7. CN1CCC(n2cc(-c3cnc(N4CCOC(Cn5nnc6ncc(-c7cnn(C)c7)nc65)C4)nc3)cn2)CC1 (stereo not drawn)  8.89
8. N#Cc1cccc(-c2cnc3nnn(C[C@@H]4CN(c5ncc(C6=CCNCC6)cn5)CCO4)c3n2)c1  8.01

Same assay, conditions: read-out: Hs746T IC50; cancer cell (Hs746T) proliferation inhibition, culturing with compound for 72 hours; tested form: HCl

`Cn1cc(-c2cnc3nnn(C[C@@H]4CN(c5ncc(-c6cnn(C7CCNCC7)c6)cn5)CCO4)c3n2)cn1` [Chemical formula 4, (S)-2-((6-(1-methyl-1H-pyrazol-4-yl)-1H-[1,2,3]triazolo[4,5-b]pyrazin-1-yl)methyl)-4-(5-(1-(piperidin-4-yl)-1H-pyrazol-4-yl)pyrimidin-2-yl)morpholine HCl salt] was tested, and the pIC50 was 9.77.

pIC50: −log10 of the molar value. Counter-ions that a name gives are not always drawn.
